Assay results reported in patent US7709613B2, “Rhenium-188 and rhenium-186 for treatment of tumors expressing a Na+/I− symporter” (priority 2002, dated 2010).
Read-outs that look alike come from different tables or passages of the source.

System: NIS-expressing xenografted mammary adenocarcinoma (NAFA cells)
Assay type: in vivo, nude mice
Procedure: Animal model. […] Since erbB-2 (Neu) is one of the better known human breast cancer oncogenes, a mammary tumor cell line (NAFA) induced by oncogenic Neu was used. The NAFA cell line derived from the MMTV-NeuT mouse was grown in DMEM with 10% fetal bovine serum and 1% penicillin-streptomycin. […] Female nude mice (Charles River Laboratories) 4-6 weeks old were injected SC with 10^6 NAFA cells into the left groin.
Biodistribution. […] In order to block mg-NIS in expressing organs and tumor, control animals were injected with the above mixture of isotopes combined with 2 mg NaClO4. […] The % ID/g for each organ was determined, and RIs (% ID/g in the tumor divided by the % ID/g in normal tissue) were calculated.

`[I-].[Na+]` [^125I^−, sodium iodide] was tested, and the “Tumor to normal organ ratio (RI)” value (20 min, blood) was 0.57, the “Tumor to normal organ ratio (RI)” value (20 min, kidneys) was 1.29 and the “Tumor to normal organ ratio (RI)” value (20 min, liver) was 1.68. The “Tumor to normal organ ratio (RI)” value (20 min, muscle) was 13.39, the “Tumor to normal organ ratio (RI)” value (20 min, salivary glands) was 2.20 and the “Tumor to normal organ ratio (RI)” value (20 min, spleen) was 1.60. The “Tumor to normal organ ratio (RI)” value (20 min, stomach) was 0.11, the “Tumor to normal organ ratio (RI)” value (20 min, thyroid) was 0.60 and the “Tumor to normal organ ratio (RI)” value (20 min, tumor) was 1.00. For the same molecule, the “Tumor to normal organ ratio (RI)” value (2 hr, blood) was 0.68, the “Tumor to normal organ ratio (RI)” value (2 hr, kidneys) was 1.50 and the “Tumor to normal organ ratio (RI)” value (2 hr, liver) was 2.04. For the same molecule, the “Tumor to normal organ ratio (RI)” value (2 hr, muscle) was 12.17, the “Tumor to normal organ ratio (RI)” value (2 hr, salivary glands) was 1.21 and the “Tumor to normal organ ratio (RI)” value (2 hr, spleen) was 2.62. For the same molecule, the “Tumor to normal organ ratio (RI)” value (2 hr, stomach) was 0.11, the “Tumor to normal organ ratio (RI)” value (2 hr, thyroid) was 0.13 and the “Tumor to normal organ ratio (RI)” value (2 hr, tumor) was 1.00. The “Tumor to normal organ ratio (RI)” value (24 hr, blood) was 1.67, the “Tumor to normal organ ratio (RI)” value (24 hr, kidneys) was 2.77 and the “Tumor to normal organ ratio (RI)” value (24 hr, muscle) was 6.25. The “Tumor to normal organ ratio (RI)” value (24 hr, salivary glands) was 2.50, the “Tumor to normal organ ratio (RI)” value (24 hr, spleen) was 2.50 and the “Tumor to normal organ ratio (RI)” value (24 hr, stomach) was 0.19. For the same molecule, the “Tumor to normal organ ratio (RI)” value (24 hr, thyroid) was 0.01 and the “Tumor to normal organ ratio (RI)” value (24 hr, tumor) was 1.00.
